About 1,800 (2.3%) of roughly 78,000 compounds were called active. Listed are the inconclusive results; actives and inactives stand elsewhere. Cut-off read from the data, not from the text of the source: active = inhibition above about 30%; inconclusive = mostly about 10% to 28%; inactive = weaker than that.
target: Interleukin-1 receptor-like 1 (Homo sapiens) (UniProt Q01638); experiment: inhibitors of human ST2 (IL1RL1) binding to IL-33, primary screen, biochemical, AlphaLISA (AID 1259354); conditions: AlphaLISA ST2-Fc/biotin-IL-33 interaction, 1 h; at 17 µM; stronger effect = higher value

By UniProt entry, the sequences of proteins in these tests, tags left out. Where a name states a change or a piece, a line headed by the entry shows the natural chain unless it says otherwise.
UniProt Q01638: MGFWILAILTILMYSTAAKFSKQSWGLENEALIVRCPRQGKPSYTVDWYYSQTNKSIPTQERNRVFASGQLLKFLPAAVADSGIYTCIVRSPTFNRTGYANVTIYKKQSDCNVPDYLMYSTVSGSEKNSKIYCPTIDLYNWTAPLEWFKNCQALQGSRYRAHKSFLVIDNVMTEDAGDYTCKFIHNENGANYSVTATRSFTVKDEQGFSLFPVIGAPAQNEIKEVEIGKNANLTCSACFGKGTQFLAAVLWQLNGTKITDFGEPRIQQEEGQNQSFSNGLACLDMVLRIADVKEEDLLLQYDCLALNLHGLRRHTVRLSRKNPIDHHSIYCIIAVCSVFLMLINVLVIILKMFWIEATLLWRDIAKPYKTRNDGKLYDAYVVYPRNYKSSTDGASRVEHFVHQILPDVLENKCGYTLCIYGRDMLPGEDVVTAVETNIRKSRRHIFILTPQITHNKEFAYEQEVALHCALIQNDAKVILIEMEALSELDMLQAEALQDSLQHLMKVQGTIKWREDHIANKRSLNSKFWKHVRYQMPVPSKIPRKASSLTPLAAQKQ

Row | Structure (SMILES) | inhibition
1 | Nc1nonc1OCCOc1nonc1N | inconclusive: 14%
2 | CN(CCCl)Cc1cc(Cl)c(NC2=NCCN2)c(Cl)c1 | inconclusive: 17%
3 | CN1CC(=O)NC1=NP(=O)(OCc1ccccc1)OCc1ccccc1 | inconclusive: 13%
4 | CN(C(=O)Cc1ccc(Cl)c(Cl)c1)[C@@H]1CC[C@]2(CCCO2)C[C@H]1N1CCCC1 | inconclusive: 12%
5 | O=C(NC(Nc1ccc([N+](=O)[O-])cc1)C(Cl)(Cl)Cl)c1cc([N+](=O)[O-])cc([N+](=O)[O-])c1 (centres undefined) | inconclusive: 19%
6 | O=C(NC(SC1=NCCS1)C(Cl)(Cl)Cl)c1ccc([N+](=O)[O-])cc1 (centres undefined) | inconclusive: 18%
7 | O=C(Nc1nnc(N=Cc2ccc([N+](=O)[O-])s2)s1)c1ccc([N+](=O)[O-])cc1[N+](=O)[O-] | inconclusive: 10%
8 | C1CN(c2nonc2-[n+]2nc3nonc3[n-]2)CCO1 | inconclusive: 24%
9 | Cc1c(N=Cc2ccc([N+](=O)[O-])s2)cc([N+](=O)[O-])cc1[N+](=O)[O-] | inconclusive: 22%
